This is an account of results in paper PMC12810918, “Arginine metabolism has a pivotal function for the encystation of Giardia duodenalis” (PLOS Pathogens, 2026).

This data set deals with N=C(N)NCCC[C@H](N)C(=O)O. As to the kind of experiment: purified protein. The conditions noted are these: 40 mM Hepes pH 7.0, 0-20 mM arginine.

Broadly, the Km is the concentration of substrate that gives half-maximal velocity. As a reminder, the kcat is the number of substrate molecules converted per active site and unit of time at saturation. As to “ADIAI (recombinant ADI, assemblage AI, isolate WB C6) (Giardia lamblia ATCC 50803)”, the Km worked out at 470 ± 30 µM and the kcat came to 5.57 ± 2.02 s⁻¹.
